Laboratory results as given in ChEMBL document CHEMBL1134016, “Different antagonist binding properties of human and rat histamine H3 receptors” (Bioorg Med Chem Lett, 2001).

Amino acid sequences for entries named in this document (tags omitted). A change or cut given only in a name is not applied to a line headed by its entry.
UniProt Q9Y5N1: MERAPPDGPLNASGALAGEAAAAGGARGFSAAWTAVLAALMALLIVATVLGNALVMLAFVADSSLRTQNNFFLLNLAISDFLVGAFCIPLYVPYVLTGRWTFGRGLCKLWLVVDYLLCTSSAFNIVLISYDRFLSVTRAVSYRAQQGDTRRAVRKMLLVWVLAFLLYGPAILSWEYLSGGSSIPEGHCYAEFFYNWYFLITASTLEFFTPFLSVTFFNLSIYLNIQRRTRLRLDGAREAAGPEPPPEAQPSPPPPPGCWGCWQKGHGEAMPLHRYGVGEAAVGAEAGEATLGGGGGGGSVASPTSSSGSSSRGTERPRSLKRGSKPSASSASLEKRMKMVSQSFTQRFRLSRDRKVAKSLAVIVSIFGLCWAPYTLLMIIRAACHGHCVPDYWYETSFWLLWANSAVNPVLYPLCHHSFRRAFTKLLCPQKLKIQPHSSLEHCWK

Molecular target: Histamine H3 receptor (Homo sapiens, UniProt Q9Y5N1)
Experiment: biochemical
Format: cell-based, CHO-K1

Row | SMILES | Ki
1 | O=C(c1ccc(OCCCc2cnc[nH]2)cc1)C1CC1 [CIPROXIFAN] | 46 nM
2 | NC(=NCc1ccc(Cl)cc1)SCCCc1cnc[nH]1 [CLOBENPROPIT] | 2.4 nM
